One compound from US20250346582A1, “SPLEEN TYROSINE KINASE INHIBITORS AND METHODS OF USE THEREOF” (THE BOARD OF TRUSTEES OF THE UNIVERSITY OF ILLINOIS, priority 2022, published 2025) can be followed below.

SMILES strings stand for the structures.

Format in all cases: cell-based
For test [1], the system named is entospletinib-resistant MV4-11 cells. As to the kind of experiment: XTT cell proliferation assay, entospletinib-resistant MV4-11 cells. The following applies: Homo sapiens, MV4-11, read-out: Imax, inhibition of proliferation (XTT assay). As to the method:
MV4-11 cells were treated with entospletinib (or WC36) to induce drug-resistance cells as reported previously^37. MV4-11 cells were incubated first with 500 nM entospletinib (or WC36) for the first week, then the drug concentration was increased 0.5 μM per week until it reached 5 μM (i.e., 10 weeks). Then the concentration was maintained at 5 μM. When the cells remained >90% viable in the presence of 5 μM (i.e., 10×IC50) entospletinib, they were considered entospletinib-resistant.
(§1) MV4-11 or HL-60 cells were seeded into a clear-bottom 96-well plate containing varying concentrations of inhibitors in the optimal growth media described above and the mixtures were incubated for 16 h. Cells were then treated with a mixture of XTT-labeling reagents and the electron coupling reagents according to the manufacturer's protocol (Roche). After 4 h, the absorbance values at 475 nm and at 660 nm were simultaneously measured by Synergy™ Neo spectrofluorometer at 25° C. Cells with the growth media was used for background correction.

Another test has as its system HL60 cells. As to the kind of experiment: XTT cell proliferation assay, HL60 cells. Here is the method: as §1
The target in test [2] is T1, scaffolding function of Syk (Homo sapiens, UniProt P43405).
T1 construct: host or cells: MV4-11 AML cells (naive and entospletinib-resistant)
Briefly: Co-immunoprecipitation with Syk, entospletinib-resistant MV4-11 cells. The settings on record: 5 μM. Here is the method:
(§2) MV-4-11 cells were collected by centrifugation, washed twice with phosphate phosphate-buffered saline (PBS) and resuspended in the immunoprecipitation (IP) buffer (50 mM HEPES, pH 7.4, 150 mM NaCl, 1 mM MgCl2, 1 mM EGTA, and 0.25 mM GTP) with 0.2-0.5% Triton X-100 and a protease inhibitor mix (Sigma-Aldrich). Lysates were prepared after 5 min of incubation on ice by repeated pipetting and centrifugation for 10 min at 12,000 g and at 4° C. For immunoprecipitation, the SYK-specific antibody was immobilized onto 100 μl Dynabeads/protein A (ThermoFisher) and the excess antibody was washed away by placing the tube in a DynaMag magnet and removing the supernatant. The resuspended beads were then incubated with the cell extract supernatant containing 500 μg of proteins for 1 h at 4° C. The immunoprecipitates were rinsed three times with the IP buffer and eluted with 30 μl of the sample buffer containing sodium dodecyl sulfate (SDS). For detection of proteins in total extracts (i.e., Input), 30 μg of the sample was loaded in each gel lane for western blot analysis.

For test [3], the target named is T1, scaffolding function of Syk. Briefly: Co-immunoprecipitation with Syk, naïve MV4-11 cells. The settings on record: 5 μM. Here is the method:
as §2

Take `c1cn2cc(-c3ccc4cn[nH]c4c3)nc(Nc3ccc(N4CCOCC4)cc3)c2n1` [entospletinib, reference compound]: the inhibition at 20 µM in test [1] was ≤ 50%. Further, the “inhibition of proliferation (XTT assay)” value in the test with HL60 cells is listed as “ineffective”. Further, the “suppression of co-precipitation with Syk” value in test [2] is “did not”. The “suppression of the scaffolding function of Syk (co-precipitation)” value in test [3] is given as “little to no effect”.
